{
  "source": "paper PMC7725785",
  "about": "“TRIB3 promotes MYC-associated lymphoma development through suppression of UBE3B-mediated MYC degradation” (Nature Communications, 2020)",
  "binders": {"B1": {"name": "Purified His-tagged MYC (natural protein, human, UniProt P01106 1-454, looked up)", "chain": "MDFFRVVENQQPPATMPLNVSFTNRNYDLDYDSVQPYFYCDEEENFYQQQQQSELQPPAPSEDIWKKFELLPTPPLSPSRRSGLCSPSYVAVTPFSLRGDNDGGGGSFSTADQLEMVTELLGGDMVNQSFICDPDDETFIKNIIIQDCMWSGFSAAAKLVSEKLASYQAARKDSGSPNPARGHSVCSTSSLYLQDLSAAASECIDPSVVFPYPLNDSSSPKSCASQDSSAFSPSSDSLLSSTESSPQGSPEPLVLHEETPPTTSSDSEEEQEDEEEIDVVSVEKRQAPGKRSESGSPSAGGHSKPPHSPLVLKRCHVSTHQHNYAAPPSTRKDYPAAKRVKLDSVRVLRQISNNRKCTSPRSSDTEENVKRRTHNVLERQRRNELKRSFFALRDQIPELENNEKAPKVVILKKATAYILSVQAEEQKLISEEDLLRKRREQLKHKLEQLRNSCA", "notes": "purified recombinant MYC; also called MYC-His; MYC protein; source: bought: Origene (TP760019), purified"}},
  "target": "T1, UBE3B (His-tagged), recombinant (human, UniProt Q7Z3V4 1-1068)",
  "T1 construct": "recombinant UBE3B; also called purified UBE3B; source: Freestyle 293-F cells, transient transfection, purified (Ni-NTA, Superdex 200)",
  "T1 sequence (looked up)": "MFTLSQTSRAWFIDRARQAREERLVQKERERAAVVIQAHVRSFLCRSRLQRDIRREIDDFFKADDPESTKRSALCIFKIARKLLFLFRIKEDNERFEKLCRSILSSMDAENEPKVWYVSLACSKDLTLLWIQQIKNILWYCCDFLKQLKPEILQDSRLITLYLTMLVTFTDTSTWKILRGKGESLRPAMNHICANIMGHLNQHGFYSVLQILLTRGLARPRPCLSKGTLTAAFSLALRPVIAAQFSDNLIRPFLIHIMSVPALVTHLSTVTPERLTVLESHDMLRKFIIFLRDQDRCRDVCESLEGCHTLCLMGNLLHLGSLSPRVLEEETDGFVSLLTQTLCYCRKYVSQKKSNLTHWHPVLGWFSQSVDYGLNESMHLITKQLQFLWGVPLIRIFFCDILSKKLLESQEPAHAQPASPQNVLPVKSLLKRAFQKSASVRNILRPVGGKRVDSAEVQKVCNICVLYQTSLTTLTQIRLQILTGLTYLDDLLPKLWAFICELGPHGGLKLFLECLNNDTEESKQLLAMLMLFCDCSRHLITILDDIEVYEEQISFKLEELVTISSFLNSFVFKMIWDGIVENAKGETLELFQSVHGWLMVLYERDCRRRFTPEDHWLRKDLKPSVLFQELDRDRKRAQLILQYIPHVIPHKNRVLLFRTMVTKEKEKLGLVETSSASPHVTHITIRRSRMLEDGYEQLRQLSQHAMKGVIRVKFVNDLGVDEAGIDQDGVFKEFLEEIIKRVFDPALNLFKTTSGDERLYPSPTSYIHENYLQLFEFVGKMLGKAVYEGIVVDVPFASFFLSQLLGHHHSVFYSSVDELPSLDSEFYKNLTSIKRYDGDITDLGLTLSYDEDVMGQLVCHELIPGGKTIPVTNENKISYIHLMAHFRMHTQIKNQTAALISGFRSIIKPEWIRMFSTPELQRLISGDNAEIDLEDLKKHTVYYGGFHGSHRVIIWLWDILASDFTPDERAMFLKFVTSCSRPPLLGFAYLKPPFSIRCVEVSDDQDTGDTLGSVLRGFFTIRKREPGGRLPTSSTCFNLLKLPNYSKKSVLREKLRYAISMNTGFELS",
  "experiment": "co-IP; in vitro co-IP in the purified component system: His-tagged MYC (5 μg), His-tagged UBE3B (5 μg) and GST-tagged MAX mixed in 100 μl of 1% NP-40, 120 mM NaCl, 40 mM tris-HCl pH 7.4, 6 h at 4 °C",
  "details": "both partners purified",
  "data": [
    {"binder": "B1", "values": [
      {"measurement": "binding result", "value": "binds"}
    ]}
  ]
}
